Results reported in EP0595743B1, “Bihaptinic derivatives for binding technetium or rhenium, process for their preparation, application for diagnosis and therapy, kits and immunological reactants comprising them” (priority 1992, dated 2001).

Key:
[1] = probe alone, 13 µCi, 2 pmol
Procedure: (§1) La liaison du dérivé de l'exemple 3 aux cellules hépatiques s'effectue par l'intermédiaire de sa liaison au site Ac de l'anticorps 679.1MC7, lui même lié par son fragment F(c) à ces cellules. Des souris ayant reçu 2µg d'anticorps 679.1MC7 24 heures plus tôt sont injectées par voie intraveineuse avec 100 µCi (15 pmol) de dérivé de l'exemple 3. Les images sont réalisées avec une caméra Sopha Medical Gammatome 2 équipée avec un collimateur haute résolution de moyenne énergie, puis les animaux sont sacrifiés et la radioactivité présente dans le foie est déterminée à l'aide d'un compteur gamma. […] 100 µCi de dérivé de l'exemple 3 sont injectés à une souris ayant reçu quelques minutes plus tôt 1µg de conjugué anticorps CY34-679.1MC7 (anti-lyb8.2-anti-Histamine-Succinyl-Glycine). Les images sont enregistrées comme indiqué dans l'exemple précédent. […] Des cellules de tumeurs colorectales humaines (cellules LS 174, 3.10^6) sont injectées par voie sous cutanée à des souris nudes. […] Les souris reçoivent alors 2µg de conjugué anticorps F6-679.1MC7 (antiCEA-anti-Histamine-Succinyl-Glycine). Vingt quatre heures plus tard les souris reçoivent 6,7µCi (1pmol) de dérivé de l'exemple 3. Six heures plus tard les images sont enregistrées comme indiqué dans l'exemple précédent puis les animaux sacrifiés.

[2] = tested on: anticorps reconnaissant le haptène histamine-succinyl-glycine; conditions: radioactivity excreted in urine, tested against anti-hapten antibody
Procedure: as §1

[3] = 10 nanomol, observed for 16 days

## ^99mTc mercaptoacétyl-Glycyl-Glycyl-Glycyl-N-ε-(Histamine-Succinyl-Glycine)-Lysyl-D-Tyrosyl-N-ε-(Histamine-Succinyl-Glycine)-Lysinamide [Exemple 3]
[1]
  élimination de l'activité: élimination très rapide de l'activité, principalement dans les urines
[1]; 6 h after injection, liver
  % de la dose injectée par gramme de foie: 1 % par gramme
[1]; 6 h after injection, plasma
  % de la dose injectée par ml de plasma: < 0,15 % de la dose injectée par ml
[1]; 6 h after injection, spleen
  % de la dose injectée par gramme de rate: 0,2 % par gramme
[1]; 6 h after injection, tumour
  % de la dose injectée par gramme de tumeur: 0,25 % par gramme
[2]
  immunoréactivité de la radioactivité excrétée dans les urines: ~90%
[3]
  signe de toxicité: aucun signe de toxicité
[3]; versus control animals
  prise de poids: n'a pas été significativement différente
